Measurements as given in patent US20240316164A1, “ENHANCED EXPRESSION OF AN AROMATIC AMINO ACID DECARBOXYLASE (AADC) IN THE SUBSTANTIA NIGRA FOR THE TREATMENT OF PARKINSON'S DISEASE” (Northwestern University, priority 2021, published 2024).

Test system: striatal dopamine release
Assay: Evoked striatal dopamine release by fast-scan cyclic voltammetry in ex vivo brain slices
Set-up: species or system mouse
Conditions: levodopa pretreatment, stimulation 350 μA, 2 ms
Protocol: FIG. 4. cNdufs2^−/− mice manifest a progressive, levodopa-responsive Parkinsonism. a, Schematic diagram of the experimental protocol for Y maze test. The scoring of 2 and 3 was counted as incorrect. b, Box plots indicate the percentage of correct choices for wildtype (P30 N=8; P60 N=6) cNdufs2^−/− (P30 N=8; P60 N=6), and cNdufs2^−/− plus 6 mg/kg levodopa (P30 N=8; P60 N=6). c, Striatal dopamine release measured with fast-scan cyclic voltammetry at P30 and P60. Local electrical stimulation (350 μA, 2 ms) was used to evoke release. […] By P30, cNdufs2^−/− mice took longer (N=10-13 per group). e, Open-field traces in wildtype and cNdufs2^−/− mice at P30 and P100. f, Number of pauses during open field test in wildtype and cNdufs2^−/− mice. […] N=12-27per group. h-m, Gait analysis procedure and measurement schematics. h, Pictures of wildtype and cNdufs2^−/− mice footprints with representations of measurements of RF (Right Fore). RH (Right Hind). […]
In addition to triggering metabolic reprogramming, loss of Ndufs2 induced significant changes in the expression of genes related to axonal growth and transport (e.g., Tubb3, Uchl1, WntSa, Sema3g Nofl, Nefm, Prkca, Sema4d), synaptic transmission (e.g., Syt1/3/17, Syn2, SCNA), DA synthesis/storage (e.g., TH, VAMP2) and presynaptic regulation (e.g., Drd2, Chra4,6) (FIG. 2a, Tables 4-6). […] To determine the functional significance of these changes, DA release evoked by electrical stimulation was measured in ex vivo brain slices using fast scan cyclic voltammetry or the genetically-encoded, optical DA sensor dLight (Ref. 19; incorporated by reference in its entirety). By P30, DA release by dopaminergic axons in the dorsolateral striatum-measured with either approach—was close to zero. In contrast, somatodendritic DA release in the SN (measured with dLight) was normal (FIG. 2f-i, FIG. 14-15). […]

SMILES: N[C@@H](Cc1ccc(O)c(O)c1)C(=O)O [levodopa]
- evoked striatal DA release (ex vivo slices from P30 cNdufs2−/− mice): increased DA release to measurable levels
- evoked striatal DA release (ex vivo slices from P60 cNdufs2−/− mice): but not from P60 mice
- evoked striatal DA release (ex vivo slices from P60 cNdufs2−/− mice, listed as Levodopa): but not P60 mice
